{"source": "patent US20250127740A1", "about": "“COMPOSITION CONTAINING 3-HYDROXYANTHRANILIC ACID AND COMPOUNDS THAT ALTER IRON HOMEOSTASIS AND METHOD OF ITS USE” (priority 2021, published 2025)", "system": "C. elegans", "assay_type": "in vivo", "conditions": "added to culture medium of haao-1 knockout worms (elevated endogenous 3HAA)", "method": "To determine if 3HAA in combination with DFO or FAC have any toxic effects to an animal, DFO was added to culture medium of haao-1 knockout worms, which have elevated endogenous 3HAA. We chose this approach because adding 3HAA and DFO or FAC to the growth media would impact bacterial growth, which can itself impact worm survival. Using the haao-1 knockout strain exposes the animals, but not their bacterial food source, to 3HAA.", "data": [{"substance": "ferric ammonium citrate [FAC]", "values": [{"measurement": "toxicity to C. elegans relative to wild type animals", "result": "neither the combination of DFO and elevated 3HAA (haao-1) nor the combination of FAC with elevated 3HAA (haao-1) were toxic"}]}]}
